Assay results reported in ChEMBL document CHEMBL3608303, “Discovery of novel potent and selective ligands for 5-HT2A receptor with quinazoline scaffold” (Bioorg Med Chem Lett, 2015).

Protein sequences, listed by entry. Tags and fused reporters are not part of them.
UniProt P28223, whole entry: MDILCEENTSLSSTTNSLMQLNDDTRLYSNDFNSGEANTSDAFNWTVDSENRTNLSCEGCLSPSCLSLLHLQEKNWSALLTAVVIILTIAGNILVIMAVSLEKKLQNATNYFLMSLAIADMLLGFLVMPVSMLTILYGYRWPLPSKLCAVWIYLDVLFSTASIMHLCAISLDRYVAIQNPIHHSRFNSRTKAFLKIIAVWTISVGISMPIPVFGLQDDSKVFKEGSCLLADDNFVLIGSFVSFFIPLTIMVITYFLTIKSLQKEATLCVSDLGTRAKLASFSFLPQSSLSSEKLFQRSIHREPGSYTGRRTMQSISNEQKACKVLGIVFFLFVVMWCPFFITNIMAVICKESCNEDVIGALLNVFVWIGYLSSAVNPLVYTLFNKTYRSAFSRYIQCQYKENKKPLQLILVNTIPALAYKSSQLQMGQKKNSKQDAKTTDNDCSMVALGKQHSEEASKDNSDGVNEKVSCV

Target: 5-hydroxytryptamine receptor 2A (Homo sapiens, UniProt P28223)
Assay: Displacement of [3H]ketanserin hydrochloride from 5-HT2A receptor (unknown origin) expressed in HEK293 cell membranes incubated for 15 mins by liquid scintillation spectrometry relative to control
Set-up: concentration or dose not given beside the values

inhibition [%] | SMILES
> 90 | OCCN1CCN(c2nc(Nc3ccc(Cl)cc3)c3ccccc3n2)CC1
> 90 | OCCN1CCN(c2nc(Nc3ccc(Br)cc3)c3ccccc3n2)CC1
> 90 | Clc1ccc(Nc2nc(N3CCNCC3)nc3ccccc23)cc1
> 90 | OCCN1CCN(c2nc(Nc3ccc(F)cc3)c3ccccc3n2)CC1
